Here are results for 24 compounds from patent US20250351832A1, “PHYTOCHEMICALS AS BIOPESTICIDES AND BIOSTIMULANTS” (KAY BEE BIO ORGANICS PVT. LTD., priority 2024, published 2025).

The subject of one assay is Xanthomonas axanopodis pv. punicae. The settings on record: […]; 7th day after spray; dose 1 ml/gm/lit.
Consider `CC12CCC(CC1)C(C)(C)O2` [1,8 cineole], for which the “7th day after spray (disease)” value is 13.25.

For `CC1=CCC2CC1C2(C)C` (stereo not drawn) [Alpha-pinene], the “7th day after spray (disease)” value was 14.25.

Regarding `C=C1C2CCC(C2)C1(C)C` (stereo not drawn) [Camphene, camphene], the “7th day after spray (disease)” value amounted to 13.50.

Take `CC12CCC(CC1=O)C2(C)C` (stereo not drawn) [Camphor]: the “7th day after spray (disease)” value worked out at 11.25.

On to `Cc1ccc(C(C)C)cc1O` [Carvacrol], for which the “7th day after spray (disease)” value amounted to 11.50.

As for `C=CCc1ccc(OC)c(O)c1` [Chavibetol], the “7th day after spray (disease)” value amounted to 8.25.

As for `CC(C)=CCCC(C)=CC=O` [Citral], the “7th day after spray (disease)” value was 10.50.

As to `C=C(C)[C@H]1CC=C(C)CC1` [D-limonene], the “7th day after spray (disease)” value is on record as 10.75.

As to `O=c1oc2c(O)c(O)cc3c(=O)oc4c(O)c(O)cc1c4c23` [Ellagic acid], the “7th day after spray (disease)” value turned out to be 12.00.

`CCCCCCCCCC(C)=O` [Embodiment 2-undecanone, 2-undecanone]: the “7th day after spray (disease)” value was determined as 8.75.

Take `C=CCc1ccc(O)c(OC)c1` [Eugenol]: the “7th day after spray (disease)” value is 11.00.

With `CCCCC[C@H](O)CC(=O)CCc1ccc(O)c(OC)c1` [Gingerol], the “7th day after spray (disease)” value was determined as 10.50.

Take `CC1CCC(C(C)C)C(O)C1` (stereo not drawn) [Menthol]: the “7th day after spray (disease)” value came out at 7.00.

Take `C=CCc1ccc(OC)cc1` [Methyl chavicol]: the “7th day after spray (disease)” value was 10.25.

Consider `CCCCCCCCCCCCCCCC(=O)O` [Palmitic acid], for which the “7th day after spray (disease)” value is 8.75.

Consider `O=C(/C=C/C=C/c1ccc2c(c1)OCO2)N1CCCCC1` [Piperine], for which the “7th day after spray (disease)” value is reported as 13.00.

Consider `Cc1ccc(C(C)C)c(O)c1` [Thymol], for which the “7th day after spray (disease)” value turned out to be 10.25.

`CC1=CC(=O)C(C(C)C)=CC1=O` [Thymoquinone]: the “7th day after spray (disease)” value came to 9.25.

Turning to `Cc1ccc(C(C)C)cc1` [p-Cymene], the “7th day after spray (disease)” value stood at 7.25.

`C/C=C\c1cc(OC)c(OC)cc1OC` [β-Asarone]: the “7th day after spray (disease)” value is on record as 11.75.

Still in this assay, the particulars now being: in vivo.
Turning to `COc1cc(CNC(=O)CCCC/C=C/C(C)C)ccc1O` [Capsaicin], the “5th day after spray (disease)” value was found to be 11.75 and the “7th day after spray (disease)” value came out at 7.50.

Regarding `CC(C)c1ccc(C=O)cc1` [Cuminaldehyde], the “5th day after spray (disease)” value came to 12.25 and the “7th day after spray (disease)” value is 10.00.

The same assay, now with this note: pomegranate plants inoculated with Xanthomonas axanopodis pv. punicae; 5th day after spray; dose 1 ml/gm/lit.
For Berberine, the “5th day after spray (disease)” value is reported as 12.25.

Turning to Parthenin, the “5th day after spray (disease)” value worked out at 14.25.

Still in this assay, the particulars now being: pomegranate plants inoculated with Xanthomonas axanopodis pv. punicae; 7th day after spray; dose 1 ml/gm/lit.
Turning to Berberine, the “7th day after spray (disease)” value is recorded as 9.50.

Consider Parthenin, for which the “7th day after spray (disease)” value was determined as 12.75.

The assay is the same for the next values; noted with them: pomegranate plants inoculated with Xanthomonas axanopodis pv. punicae; baseline before spray; dose 1 ml/gm/lit.
Take Berberine: the “Pre Spraying (disease)” value is reported as 16.00.

Turning to Parthenin, the “Pre Spraying (disease)” value stood at 15.25.
